The test is described as follows: Displacement of Cy3-labeled geldanamycin from HSP90 in Candida albicans clinical isolate 2 cell lysate measured after […] by fluorescence polarization assay. It counts as subcellular.
`CC(C)(C)n1nc(-c2ccccc2)cc1Nc1cc(O)cc(O)c1C(=O)N1Cc2cccnc2C1` displayed an EC50 of 379 nM.
The figure for `Cn1nccc1Nc1cc(O)cc(O)c1C(=O)N1Cc2cn[nH]c2C1` is 377 nM; for `COc1ccc(Cn2nc(C(C)(C)C)cc2Nc2cc(O)cc(O)c2C(=O)N2Cc3ccccc3C2)cc1` it is 816 nM; for `O=C(c1c(O)cc(O)cc1Nc1ccnn1Cc1cccnc1)N1Cc2cccnc2C1` it is 143 nM.
Then `O=C(c1c(O)cc(O)cc1Nc1ccnn1Cc1ccco1)N1Cc2cccnc2C1`, with 80 nM; and `O=C(c1c(O)cc(O)cc1Nc1cc(-c2ccccc2)nn1C1CCCCC1)N1Cc2cccnc2C1`, with 59 nM; and `CC(C)(C)n1nc(-c2ccccc2)cc1Nc1cc(O)cc(O)c1C(=O)N1Cc2cn[nH]c2C1`, with 182 nM.
The figure for `COc1ccc(Cn2ncc(Cc3ccccc3)c2Nc2cc(O)cc(O)c2C(=O)N2Cc3ccccc3C2)cc1` is 465 nM; for `CC(C)n1nccc1Nc1cc(O)cc(O)c1C(=O)N1Cc2ccccc2C1` it is 76 nM; for `COc1ccc(Cn2ncc(C(C)C)c2Nc2cc(O)cc(O)c2C(=O)N2Cc3ccccc3C2)cc1` it is 147 nM.
`COc1ccc(Cn2ncc(-c3ccccc3)c2Nc2cc(O)cc(O)c2C(=O)N2Cc3ccccc3C2)cc1` returned an EC50 of 615 nM.
The figure for `Cn1nc(-c2ccccc2)cc1Nc1cc(O)cc(O)c1C(=O)N1Cc2cccnc2C1` is 395 nM; for `Cn1nccc1Nc1cc(O)cc(O)c1C(=O)N1Cc2cccnc2C1` it is 624 nM.
Then `O=C(c1c(O)cc(O)cc1Nc1cc(-c2ccccc2)nn1C1CCCCC1)N1Cc2cn[nH]c2C1`, with 34 nM.
The figure for `Cc1ccc(Cn2nc(C)cc2Nc2cc(O)cc(O)c2C(=O)N2Cc3ccccc3C2)cc1` is 121 nM.

For the origin of these results see ChEMBL document CHEMBL4402526, “Design and Synthesis of Fungal-Selective Resorcylate Aminopyrazole Hsp90 Inhibitors” (J Med Chem, 2020).
